Here are results for 22 compounds from PubChem BioAssay AID652257 (The Scripps Research Institute Molecular Screening Center, 2013).

By UniProt entry, the sequences of proteins in these tests, tags left out.
UniProt Q99873, whole entry: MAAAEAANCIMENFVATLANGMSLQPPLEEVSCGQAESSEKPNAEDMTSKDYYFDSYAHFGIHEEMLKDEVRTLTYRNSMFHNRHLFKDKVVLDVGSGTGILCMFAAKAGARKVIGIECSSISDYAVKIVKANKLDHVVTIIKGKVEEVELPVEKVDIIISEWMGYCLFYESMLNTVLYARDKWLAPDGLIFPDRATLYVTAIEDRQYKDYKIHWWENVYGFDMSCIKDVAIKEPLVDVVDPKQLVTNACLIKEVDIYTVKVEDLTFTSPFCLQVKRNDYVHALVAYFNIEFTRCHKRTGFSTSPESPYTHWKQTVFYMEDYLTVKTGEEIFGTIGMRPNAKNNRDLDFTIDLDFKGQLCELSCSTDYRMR

Structures are written as SMILES. This is a selection; strong and weak results do not stand in their true shares. Calls of active or inactive are those of the source.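 Rule for the calls: active = inhibition above about 21% made by adding two undisclosed values (limit read from the data); inactive = the rest.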

For this assay, the target named is Protein arginine N-methyltransferase 1 (Homo sapiens) (UniProt Q99873). As to the kind of experiment: PRMT1 methyltransferase inhibitors, primary screen, biochemical, fluorescence polarization (AID 652257). Conditions: recombinant PRMT1, activity-based probe fluorescence polarization; at 2.79 µM; active compounds read high.
Regarding `CCCCOc1ccc(C(=O)NCC2(N3CCOCC3)CCCCC2)cc1`, the inhibition is inactive: -0.74%.
The same measure for `O=C(NCC1(N2CCOCC2)CCCCC1)c1cc2ccccc2o1`: inactive: -2.85%.
For the compound `Cc1cc(C)cc(N(C(=O)c2ccccc2)C2CCN(C(=O)OC(C)(C)C)CC2)c1`, the inhibition was inactive: -2.14%.
For the compound `O=c1[nH]c2ccccc2n1C1CCN(C(c2ccccc2OC(F)(F)F)c2nnnn2C2CCCCC2)CC1` (configuration not stated), the inhibition is inactive: -9.54%.
As for `O=C(NCC1(N2CCCCC2)CCCCC1)c1ccc(Cl)nc1`, the figure is inactive: -0.09%; as for `CCCCn1nnnc1C(c1ccc(OC)cc1)N1CCC(n2c(=O)[nH]c3ccccc32)CC1` (configuration not stated), inactive: 5.8%.
For the compound `CCOC(=O)N1CCC(Nc2ccc(OC)cc2)CC1`, the inhibition is inactive: 0.26%.
As for `COc1ccc(Cl)cc1C(=O)NCC1(N2CCOCC2)CCCCC1`, the figure is inactive: -5.72%.
As for `O=C(OC1CN2CCC1CC2)C1c2ccccc2Oc2ccccc21` (configuration not stated), the figure is inactive: 0.75%; as for `O=c1[nH]c2ccccc2n1C1CCN(C(c2cc3ccccc3o2)c2nnnn2C2CCCCC2)CC1` (configuration not stated), inactive: 6.58%.
The same measure for `N#CC1(Nc2ccccc2)CCN(Cc2ccccc2)CC1`: inactive: -2.23%; for `O=C(NCC1(N2CCCCC2)CCCCC1)c1ccc(Cl)s1`: inactive: 0.37%.
For the compound `CCCCn1nnnc1C(c1cccs1)N1CCC(n2c(=O)[nH]c3ccccc32)CC1` (configuration not stated), the inhibition was inactive: -7.18%.
With `O=C(NCC1(N2CCCCC2)CCCCC1)c1cccs1`, the inhibition is inactive: 1.16%.
As for `CCCCn1nnnc1C(CC)N1CCC(n2c(=O)[nH]c3ccccc32)CC1` (configuration not stated), the figure is inactive: 2.71%.
As for `O=C(NCC1(N2CCCCC2)CCCCC1)c1ccc(=O)[nH]c1`, the figure is inactive: 2.85%; as for `CCC(c1nnnn1C1CCCC1)N1CCC(n2c(=O)[nH]c3ccccc32)CC1` (configuration not stated), inactive: 4%.
As for `CC(C)(C)OC(=O)N1CCC(N(C(=O)c2ccccc2)c2ccc(F)cc2)CC1`, the figure is inactive: -3.12%.
As to `COc1ccc(C(=O)NCC2(N3CCCCC3)CCCCC2)c(OC)c1OC`, the inhibition is inactive: 4.82%.
The same measure for `COc1ccc(C(=O)NCC2(N3CCCCC3)CCCCC2)cc1`: inactive: 0.44%.
As for `Cc1cccc(NC2(C#N)CCN(Cc3ccccc3)CC2)c1`, the figure is inactive: -1.35%.
Regarding `CSc1ccccc1C(=O)NCC1(N2CCCCC2)CCCCC1`, the inhibition was inactive: 0.32%.
